Literature values as cited in patent US9376395B2 (priority 2011, dated 2016).

Settings: cited from earlier work

SMILES: NC(CO)(CO)CO [Tris]
- pKa: 8.30
